Results published in article PMC6692420, “Validation of [^125I]CPCR4.3 as an investigative tool for the sensitive and specific detection of hCXCR4 and mCXCR4 expression in vitro and in vivo” (EJNMMI Research, 2019).

Chains of the proteins cited; added tags and fusions are not shown.
UniProt P61073, whole entry: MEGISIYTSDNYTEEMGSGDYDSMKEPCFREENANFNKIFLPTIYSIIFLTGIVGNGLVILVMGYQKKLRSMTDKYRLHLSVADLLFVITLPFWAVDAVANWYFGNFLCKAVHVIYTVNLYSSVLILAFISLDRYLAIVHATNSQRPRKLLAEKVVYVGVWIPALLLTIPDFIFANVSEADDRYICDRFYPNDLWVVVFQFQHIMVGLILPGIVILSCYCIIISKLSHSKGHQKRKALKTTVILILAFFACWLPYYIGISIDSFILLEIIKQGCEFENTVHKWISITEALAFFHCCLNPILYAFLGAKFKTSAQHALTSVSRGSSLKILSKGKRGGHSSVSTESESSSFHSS

Target: T1, hCXCR4 (Homo sapiens, UniProt P61073)
T1 construct: endogenous hCXCR4 (Jurkat); endogenous in cells
Assay: Competitive binding assay (IC50) on Jurkat cells with [^125I]CPCR4.3 as radioligand
Conditions: Jurkat human T cell leukemia cells, 200,000 cells/sample, radioligand [^125I]CPCR4.3
Procedure: Affinities for human and murine CXCR4 (hCXCR4 and mCXCR4) were determined in competitive binding assays (IC50) using either Jurkat or Eμ-Myc 1080 mouse lymphoma cells (2 × 10^5 cells/sample) in Hank’s buffered salt solution (1% BSA) and [^125I]CPCR4.3 as radioligand. To allow data normalization, [^natGa] Pentixafor and FC-131 were included as references in this study. Experiments were performed in triplicate with n = 3 per concentration in each experiment. IC50 values were calculated using GraphPad Prism 6.01 (Graph Pad Software, San Diego, USA).

IC50: 12.4 ± 3.1 nM
Compound: N=C(N)NCCC[C@@H]1NC(=O)[C@H](CCCNC(=N)N)NC(=O)[C@@H](Cc2ccc(O)cc2)NC(=O)CNC(=O)[C@H](Cc2ccc3ccccc3c2)NC1=O [FC-131]
